According to PMC5541792, “Simultaneous Determination of 11 Compounds in Gualou Guizhi Granule and Pharmacokinetics Study by UPLC-MS/MS” (Journal of Analytical Methods in Chemistry, 2017):

Test: Stability of analytes in rat plasma samples (method validation)
Type: in vitro ADME
Settings: 4°C for 24 h, high QC nominal concentration, n = 6
Description: Stability of the analytes from plasma samples was performed by determining three different concentrations (low, middle, and high samples) in six replicates under different conditions. It included short-term stability which was assessed by keeping samples at room temperature (25°C) for 24 h, stability which was measured using samples stored at 4°C for 24 h, and freeze-thaw stability that was determined after three freeze-thaw cycles at −80°C.

For `CC1(C)[C@@H](O[C@H]2O[C@H](C(=O)O)[C@@H](O)[C@H](O)[C@H]2O[C@@H]2O[C@H](C(=O)O)[C@@H](O)[C@H](O)[C@H]2O)CC[C@]2(C)[C@H]3C(=O)C=C4[C@@H]5C[C@@](C)(C(=O)O)CC[C@]5(C)CC[C@@]4(C)[C@]3(C)CC[C@@H]12` [Glycyrrhizic acid, glycyrrhizic acid], the “Autosampler stability (24 h) Mean” value was 107.48%.
